Source: patent US20260166162A1, “CARBON CHAIN SUBSTANCE FOR REGULATING TRANSMEMBRANE TRANSPORT AND FLUIDITY OF CELL MEMBRANES, AND PREPARATION AND USE THEREOF” (priority 2022, published 2026)
pIC50: −log10 of the molar value.

How the values were obtained:
Escherichia coli = assay: Bacteriostasis/sterilization test (plate count); conditions: 2 h
Staphylococcus aureus [1] = assay: Bacteriostasis/sterilization test (plate count); conditions: 2 h
[2] = tested on: Methicillin-resistant Staphylococcus aureus; assay: Bacteriostasis/sterilization test (plate count); conditions: 2 h; for Sterilization rate (%): listed as printed as Methicillin-resistant Streptococcus pneumoniae
Streptococcus pneumoniae = assay: Bacteriostasis/sterilization test (plate count); conditions: 2 h
Klebsiella pneumoniae = assay: Bacteriostasis/sterilization test (plate count); conditions: 2 h
Pseudomonas aeruginosa = assay: Bacteriostasis/sterilization test (plate count); conditions: 2 h
Candida albicans = assay: Fungicidal test (plate count); conditions: 0.035 mM, 2 h
Aspergillus niger = assay: Fungicidal test (plate count); conditions: 0.035 mM, 2 h
Actinomyces viscosus = assay: Fungicidal test (plate count); conditions: 0.035 mM, 2 h
Chaetomium globosum = assay: Fungicidal test (plate count); conditions: 0.035 mM, 2 h
Aspergillus protuberus = assay: Fungicidal test (plate count); conditions: 0.035 mM, 2 h
Microsporum canis = assay: Fungicidal test (plate count); conditions: 0.035 mM, 2 h
Staphylococcus aureus [3] = assay: Electron microscopy of bacterial structure after treatment; format: cell-based; conditions: treatment 1, 2, 5 min
[4] = Retention time in the lung after lung lavage; conditions: lungs taken after 1, 4, 8, 12 h

Substance | Sterilization rate (%) (Escherichia coli; concentration not given) | Sterilization rate (%) (Staphylococcus aureus [1]; concentration not given) | Sterilization rate (%) ([2]; concentration not given) | Sterilization rate (%) (Streptococcus pneumoniae; concentration not given) | Sterilization rate (%) (Klebsiella pneumoniae; concentration not given) | Sterilization rate (%) (Pseudomonas aeruginosa; concentration not given) | also measured
EPA-HSA: serum albumin grafted with eicosapentaenoic acid (Example 1) | >99 | >99 | >99 | >99 | >99 | >99 | –
ALA-HSA: serum albumin grafted with linolenic acid by amide bonds (Example 1) | >99 | >99 | >99 | >99 | >99 | >99 | Sterilization rate (%) (Candida albicans): >99%; Sterilization rate (%) (Aspergillus niger): >99%; Sterilization rate (%) (Actinomyces viscosus): >99%; Sterilization rate (%) (Chaetomium globosum): >99%; Sterilization rate (%) (Aspergillus protuberus): >99%; Sterilization rate (%) (Microsporum canis): >99%; Sterilization rate (%) (Escherichia coli; 0.035 mM): >99%; Sterilization rate (%) (Staphylococcus aureus [1]; 0.035 mM): >99%; Sterilization rate (%) ([2]; 0.035 mM): >99%; Sterilization rate (%) (Streptococcus pneumoniae; 0.035 mM): >99%; Sterilization rate (%) (Klebsiella pneumoniae; 0.035 mM): >99%; Sterilization rate (%) (Pseudomonas aeruginosa; 0.035 mM): >99%
DHA-HSA: serum albumin grafted with docosahexaenoic acid (Example 1) | >99 | >99 | >99 | >99 | >99 | >99 | membrane detachment of Staphylococcus aureus (TEM) (Staphylococcus aureus [3]): bacterial membrane detachment can be seen at 1 min; retention in the lung (fluorescence of DiI-labelled complex) [4]: obvious fluorescence after 8 h; bacteriostasis rate (Escherichia coli; concentration 18 mM-[…]): 100%; pIC50 (Escherichia coli; read-out: median inhibition concentration): 5.05; median inhibition concentration (MIC) [2]: 9 µM; inhibition rate ([2]; concentration 18 mM-[…]): 100%
